Where two headings read alike, the source gives them in different places.
Columns and labels:
[1] = test system: BGC823, gastric carcinoma cell line; assay: Anti-tumor test, IC50 on cell line
Hep3B, SMMC-7721 = assay: Anti-tumor test, IC50 on cell line
[2] = test system: MDA-MB-435S, breast carcinoma high transitional cell; assay: Anti-tumor test, IC50 on cell line
thirteen cell strains = assay: Anti-tumor test, summary over the cell strains of table 1; conditions: summary of table 1
[3] = test system: A549, lung cancer cell line; assay: Anti-tumor test, IC50 on cell line; conditions: 5000 cells/well
[4] = test system: HCT116, human large intestine cancer cell line; assay: Anti-tumor test, IC50 on cell line; conditions: 3000 cells/well
[5] = test system: HT-29, moderately differentiated colon carcinoma cell of human; assay: Anti-tumor test, IC50 on cell line; conditions: 5000 cells/well
[6] = test system: Jurkat E6-1, acute T cell leukemia; assay: Anti-tumor test, IC50 on cell line; conditions: 5000 cells/well
[7] = test system: K562, chronic myelogenous leukemia; assay: Anti-tumor test, IC50 on cell line; conditions: 5000 cells/well
[8] = test system: L1210, mice leukemic cell; assay: Anti-tumor test, IC50 on cell line; conditions: 2000 cells/well
[9] = test system: MCF-7, breast carcinoma cell line; assay: Anti-tumor test, IC50 on cell line; conditions: 5000 cells/well
[10] = test system: PANC-1, pancreatic cancer cell line; assay: Anti-tumor test, IC50 on cell line; conditions: 5000 cells/well
[11] = test system: PC-3, prostate cancer cell line; assay: Anti-tumor test, IC50 on cell line; conditions: 5000 cells/well
[12] = test system: ZR-75-1, breast carcinoma cell line; assay: Anti-tumor test, IC50 on cell line; conditions: 4000 cells/well
[13] = read-out: IC50 of Taxol (nM) 1, 5000 cells/well, run 1
[14] = read-out: IC50 of Taxol (nM) 2, 5000 cells/well, run 2
[15] = read-out: IC50 of Taxol (nM) 3, 5000 cells/well, run 3

SMILES: CC(=O)O[C@H]1C(=O)[C@@]2(C)[C@H]([C@H](OC(=O)c3ccccc3)[C@]3(O)C[C@H](OC(=O)[C@H](O)[C@@H](NC(=O)c4ccccc4)c4ccccc4)C(C)=C1C3(C)C)[C@]1(OC(C)=O)CO[C@@H]1C[C@@H]2O
- IC50 [1, 13]: 9.18 nM
- IC50 [1, 14]: 9.07 nM
- IC50 [1, 15]: 9.3 nM
- IC50 (Hep3B, SMMC-7721; [13]): 6.79 nM
- IC50 (Hep3B, SMMC-7721; [14]): 6.21 nM
- IC50 (Hep3B, SMMC-7721; [15]): 6.9 nM
- IC50 [2, 13]: 0.226 nM
- IC50 [2, 14]: 0.215 nM
- IC50 [2, 15]: 0.212 nM
- IC50 (thirteen cell strains; read-out: Inhibitory Concentration 50 (IC50) of Taxol on various kinds of cells): ≤ 10 nM

SMILES: C=CCS[S+]([O-])CC=C (centres unmarked) [Allicin, thio-2-propene-1-sulfinic acid S-allyl ester]
- IC50 of Allicin (μg/ml) 1 ([3]; run 1): 6.321 ± 1.10 µg/mL
- IC50 of Allicin (μg/ml) 2 ([3]; run 2): 6.327 ± 1.08 µg/mL
- IC50 of Allicin (μg/ml) 3 ([3]; run 3): 8.032 ± 1.04 µg/mL
- IC50 of Allicin (μg/ml) 1 ([1]; 5000 cells/well, run 1): 6.318 ± 1.09 µg/mL
- IC50 of Allicin (μg/ml) 2 ([1]; 5000 cells/well, run 2): 5.679 ± 1.07 µg/mL
- IC50 of Allicin (μg/ml) 3 ([1]; 5000 cells/well, run 3): 6.192 ± 1.07 µg/mL
- IC50 of Allicin (μg/ml) 1 ([4]; run 1): 3.721 ± 1.10 µg/mL
- IC50 of Allicin (μg/ml) 2 ([4]; run 2): 4.258 ± 1.15 µg/mL
- IC50 of Allicin (μg/ml) 3 ([4]; run 3): 3.542 ± 1.09 µg/mL
- IC50 of Allicin (μg/ml) 1 ([5]; run 1): 6.282 ± 1.07 µg/mL
- IC50 of Allicin (μg/ml) 2 ([5]; run 2): 7.733 ± 1.07 µg/mL
- IC50 of Allicin (μg/ml) 3 ([5]; run 3): 6.980 ± 1.08 µg/mL
- IC50 of Allicin (μg/ml) 1 (Hep3B, SMMC-7721; 5000 cells/well, run 1): 4.917 ± 1.05 µg/mL
- IC50 of Allicin (μg/ml) 2 (Hep3B, SMMC-7721; 5000 cells/well, run 2): 4.980 ± 1.04 µg/mL
- IC50 of Allicin (μg/ml) 3 (Hep3B, SMMC-7721; 5000 cells/well, run 3): 4.564 ± 1.03 µg/mL
- IC50 of Allicin (μg/ml) 1 ([6]; run 1): 1.132 ± 1.28 µg/mL
- IC50 of Allicin (μg/ml) 2 ([6]; run 2): 1.401 ± 1.27 µg/mL
- IC50 of Allicin (μg/ml) 3 ([6]; run 3): 1.231 ± 1.14 µg/mL
- IC50 of Allicin (μg/ml) 1 ([7]; run 1): 6.302 ± 1.06 µg/mL
- IC50 of Allicin (μg/ml) 2 ([7]; run 2): ~5.884 µg/mL
- IC50 of Allicin (μg/ml) 3 ([7]; run 3): 5.817 ± 1.05 µg/mL
- IC50 of Allicin (μg/ml) 1 ([8]; run 1): 2.266 ± 1.20 µg/mL
- IC50 of Allicin (μg/ml) 2 ([8]; run 2): 2.090 ± 1.36 µg/mL
- IC50 of Allicin (μg/ml) 3 ([8]; run 3): 1.542 ± 1.19 µg/mL
- IC50 of Allicin (μg/ml) 1 ([9]; run 1): 5.853 ± 1.11 µg/mL
- IC50 of Allicin (μg/ml) 2 ([9]; run 2): 8.075 ± 1.10 µg/mL
- IC50 of Allicin (μg/ml) 3 ([9]; run 3): 10.9 ± 1.117 µg/mL
- IC50 of Allicin (μg/ml) 1 ([2]; 5000 cells/well, run 1): 10.98 ± 1.04 µg/mL
- IC50 of Allicin (μg/ml) 2 ([2]; 5000 cells/well, run 2): 11.34 ± 1.03 µg/mL
- IC50 of Allicin (μg/ml) 3 ([2]; 5000 cells/well, run 3): 10.90 ± 1.05 µg/mL
- IC50 of Allicin (μg/ml) 1 ([10]; run 1): 5.972 ± 1.02 µg/mL
- IC50 of Allicin (μg/ml) 2 ([10]; run 2): 5.941 ± 1.05 µg/mL
- IC50 of Allicin (μg/ml) 3 ([10]; run 3): ~6.204 µg/mL
- IC50 of Allicin (μg/ml) 1 ([11]; run 1): 6.583 ± 1.07 µg/mL
- IC50 of Allicin (μg/ml) 2 ([11]; run 2): 6.908 ± 1.06 µg/mL
- IC50 of Allicin (μg/ml) 3 ([11]; run 3): 7.868 ± 1.08 µg/mL
- IC50 of Allicin (μg/ml) 1 ([12]; run 1): 5.466 ± 1.12 µg/mL
- IC50 of Allicin (μg/ml) 2 ([12]; run 2): 3.019 ± 1.30 µg/mL
- IC50 of Allicin (μg/ml) 3 ([12]; run 3): 4.759 ± 1.13 µg/mL
- IC50 of allicin to 13 of the cell strains (thirteen cell strains): below 10 μg/ml

Source: patent US9023623B2, “Method for preparing of allicin injection and low-temperature continuous stirring ultrafiltration device thereof” (Xinjiang Ailexin Pharmaceutical Co., Ltd., priority 2010, dated 2015)
